In patent publication US20240400579A1, “SPIROCYCLIC MODULATORS OF CHOLESTEROL BIOSYNTHESIS AND THEIR USE FOR PROMOTING REMYELINATION” (GENENTECH, INC., priority 2021, published 2024) one finds EC50 data, which are given here for one molecule.

As a reminder, the EC50 is the concentration that produces a half-maximal response.

Assay [1] deals with EpiSC-derived OPCs. Description: In vitro phenotypic screening of OPCs, MBP high-content imaging. Conditions: read-out: mOPC EC50; percentage of MBP+ oligodendrocytes; 3 days; 0.5 nM to 1000 nM; listed as 124A*.
Assay [2] has as its system zymostenol accumulation in EpiSC-derived OPCs (EBP). In words: GC/MS-based sterol profiling, zymostenol accumulation. The settings on record: read-out: mZymo GCMS EC50, 24 hours, 8 doses from 0.15 nM to 333 nM, listed as 124A*.

Take `CC(Cc1ccc(C2CCCCO2)c(Cl)c1)CN1CCC2(C1)CS(=O)(=O)C2` (single isomer, unassigned): the EC50 came out at 32 nM in assay [1] and 6.2 nM in assay [2].
